Holding throughout (type): cell-based
In assay [1] the test system is mouse naive CD4 T cells. Kind of assay: CFSE cell division assay of mouse naive CD4 T cells. Particulars: anti-CD3/28 stimulation, CFSE profiles after 3 days. From the text: Isolation and stimulation of mouse CD4 T cells. Spleen and lymph nodes were harvested from naive mice and homogenized through a strainer. RBC were lysed from the suspension using red blood cell lysing buffer (Sigma-Aldrich). Lymphocytes were isolated by density centrifugation using Lympholyte-M (Cedarlane Laboratories). CD4+ T cells were sorted via negative selection using an AutoMACS sorter (Miltenyi Biotec). BALB/c CD4+ T cells (5×103) were stimulated in 96-well U-bottom plates with equal numbers of polystyrene latex beads (Interfacial Dynamics) coated with 1.0 μg/ml anti-CD3 (145-2C11; eBioscience) and 0.5 μg/ml anti-CD28 (37.51; eBioscience). For DO11 T cells, 5×10^3 DO11 CD4+ T cells were stimulated in 96-well U-bottom plates with 104 APC and 50 ng/ml peptide OVA323-339 (pOVA). Rapamycin (Sigma-Aldrich) was used at a concentration of 100 nM. CTLA4-Ig (Abatacept; Bristol-Myers Squibb) was used at a concentration of 10 μg/ml. […]
(§1) Proliferation and cell division assays. […] Filters were wetted with Betaplate Scintillation fluid (PerkinElmer) and counts per minute read on a 1205 Betaplate Liquid Scintillation Counter (Wallac). […]
Shown in FIG. 12A, naïve CD4 T cells were labeled with CFSE, a dye that dilutes out with successive cell divisions. The naïve CD4 T cells were stimulated with anti-CD3/28 and the indicated drug(s) and CFSE profiles assessed after 3 days. […]

In assay [2] the test system is human naive CD4+ CD45RA+ T cells. Kind of assay: Proliferation assay of human naive CD4+CD45RA+ T cells. Here is the method: (§2) Isolation and stimulation of human naive CD4^+ CD45RA^+ T cells. Human peripheral blood mononucleated cells from buffy coats of different donors were obtained from the Stanford Blood Center under Stanford University Institutional Review Board approval. Buffy coats were separated into leukocytes using Ficoll-Paque Plus (GE Health Sciences). T cells were prepared using a RosetteSep Human CD4 T Cell Enrichment (Stem Cell Technologies) followed by a Naive CD4^+ T cell Isolation Kit along using LS MACS columns (Miltenyi Biotec). Negatively selected CD4+CD45RA+CD45RO-CD25-T cells were isolated at 95-99% purity as confirmed by flow cytometry using anti-CD4-FITC (OKT4; eBioscience) and anti-CD45RA-PE (HI100; eBioscience) Ab. CD4^+ CD45RA^+ T cells (5×10^3) were stimulated in 96-well U-bottom plates with equal numbers of Dynabeads CD3/28 T Cell Expander (Invitrogen) or plate-bound anti-CD3 at 1.0 μg/ml with mitomycin C (Sigma-Aldrich) inactivated APC (anti-CD3/APC). Rapamycin (Sigma-Aldrich) was used at a concentration of 100 nM, and CTLA4-Ig (Abatacept, Bristol-Myers Squibb) was used at a concentration of 10 μg/ml. Agonist anti-CD28 Ab was used at 1.0 μg/ml (CD28.2; eBioscience). […]
as §1

Assay [3] relates to STAT5 phosphorylation (Tyr694/699). The assay is described as follows: Phospho-STAT5 immunoblot, human naive CD4 T cells. Particulars: 48 h stimulation (anti-CD3/APC for CTLA4-Ig; anti-CD3/28 for rapamycin). Here is the method:
as §2, with “eBioscience). Anti-IL-2 Ab (5334; eBioscience) was used at a concentration of 10 μg/ml. Recombinant human IL-2 (PeproTech) was used at a concentration of 10 ng/ml.” for “eBioscience).”
(A western blot detects proteins with antibodies after separation by electrophoresis.)

Assay [4] concerns Akt phosphorylation (Ser473). The assay is described as follows: Phospho-Akt immunoblot, human naive CD4 T cells. The note with it: 48 h stimulation (anti-CD3/APC for CTLA4-Ig; anti-CD3/28 for rapamycin). On the procedure: as §2, with “eBioscience). Anti-IL-2 Ab (5334; eBioscience) was used at a concentration of 10 μg/ml. Recombinant human IL-2 (PeproTech) was used at a concentration of 10 ng/ml.” for “eBioscience).”

For assay [5], the system named is mTOR. The assay is described as follows: mTOR activity by phospho-S6K1 and phospho-4E-BP1 immunoblots, human naive CD4 T cells. The note with it: 48 h stimulation (anti-CD3/APC for CTLA4-Ig; anti-CD3/28 for rapamycin).
The subject of assay [6] is GRAIL. Kind of assay: GRAIL immunoblot, human naive CD4 T cells. The note with it: 48 h stimulation (anti-CD3/APC for CTLA4-Ig; anti-CD3/28 for rapamycin). Here is the method: as §2, with “eBioscience). Anti-IL-2 Ab (5334; eBioscience) was used at a concentration of 10 μg/ml. Recombinant human IL-2 (PeproTech) was used at a concentration of 10 ng/ml.” for “eBioscience).”

The subject of assay [7] is Otub1. The assay is described as follows: Otub1 immunoblot, human naive CD4 T cells. The note with it: 48 h stimulation (anti-CD3/APC for CTLA4-Ig; anti-CD3/28 for rapamycin). On the procedure: as §2, with “eBioscience). Anti-IL-2 Ab (5334; eBioscience) was used at a concentration of 10 μg/ml. Recombinant human IL-2 (PeproTech) was used at a concentration of 10 ng/ml.” for “eBioscience).”

For assay [8], the system named is Cyclin D3. The assay is described as follows: Cyclin D3 immunoblot, human naive CD4 T cells. The note with it: 48 h stimulation (anti-CD3/APC for CTLA4-Ig; anti-CD3/28 for rapamycin). Here is the method:
as §2, with “eBioscience). Anti-IL-2 Ab (5334; eBioscience) was used at a concentration of 10 μg/ml. Recombinant human IL-2 (PeproTech) was used at a concentration of 10 ng/ml.” for “eBioscience).”

Assay [9] has as its system Kip1/p27. The assay is described as follows: Kip1/p27 immunoblot, human naive CD4 T cells. Particulars: 48 h stimulation (anti-CD3/APC for CTLA4-Ig; anti-CD3/28 for rapamycin). Here is the method: as §2, with “eBioscience). Anti-IL-2 Ab (5334; eBioscience) was used at a concentration of 10 μg/ml. Recombinant human IL-2 (PeproTech) was used at a concentration of 10 ng/ml.” for “eBioscience).”

In the case of “CTLA4-Ig: CTLA4-Ig (Abatacept; Bristol-Myers Squibb), blocks CD28 costimulation”, the “cell division / proliferation by CFSE dilution” value in assay [1] is recorded as “inhibition of proliferation”. In addition, the “proliferation of human naive CD4+ CD45RA+ T cells” value in [2] (anti-CD3/APC stimulation for CTLA4-Ig 10 μg/ml, anti-CD3/28 beads for rapamycin 100 nM) is listed as “inhibited”. In addition, in assay [3], the “phosphorylation of STAT5” value is given as “decrease in phosphorylation of STAT5”. Also, the “phosphorylation of Akt” value in assay [4] is given as “decreased phosphorylation of Akt”. Also, the “mTOR activity (phosphorylation of S6K1 and 4E-BP1)” value in assay [5] is recorded as “down-regulated”. For the same substance, in assay [6], the GRAIL protein expression entry is “sustained GRAIL expression”. Also, the Otub1 protein expression result in assay [7] was “blocked Otub1 expression”. The “Cyclin D3 level” value in assay [8] is recorded as “diminished cyclin D3”. The Kip1/p27 level entry in [9] was “increased Kip1/p27”.
As for “exogenous IL-2: Recombinant human IL-2 (PeproTech)”, the “proliferation when added to CTLA4-Ig containing cultures” value in [2] (anti-CD3/APC stimulation, CTLA4-Ig present, agonist anti-CD28 Ab or exogenous IL-2 added) is listed as “reversed the inhibition of proliferation”.
